From US20220151890A1, “EFFICIENT SUNSCREEN COMPOSITIONS WITH DIETHYLAMINO HYDROXYBENZOYL HEXYL BENZOATE AND BUTYL METHOXYDIBENZOYLMETHANE” (BASF SE, priority 2019, published 2022)

Experiment: UV filter performance: wavelength of maximum absorbance of BMDBM in emollient
Assay type: physicochemical
Conditions: BMDBM dissolved in the listed emollient; UV/Vis 290 to 400nm, 1 cm cuvette
Experimental: The wavelength of maximum absorbance (,max) is an indicator to describe the performance of a UV filter molecule. It gives the wavelength at which the absorbance is at maximum. […] The UV transmission spectrum of each UV filter - emollient mixture was measured from 290 to 400nm using a UV/Vis spectrophotometer Perkin Elmer Lambda 25. Three stock solutions with a concentration of 1mM of UV filter were prepared for each mixture. Further, three dilutions of each stock solution were prepared resulting in nine measurements in total per UV filter-emollient solution. Then, all solutions were filled in UV transparent quartz cuvette of 1 cm optical path-length for UV Transmission measurements.

CCCCOC(=O)CCCCC(=O)OCCCC [dibutyl adipate]
λmax values (BMDBM): 358 nm
